# MITF act: MITF TRPM1 promoter activation in melanoma cells. hit rate 0.75% among 300,000. SK-MEL-5 TRPM1-promoter luciferase, 24 h; % of positive control, neutral wells = 0. activation, % at 12.5 µM. AID 588334;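 active means mean activation of at least 80% with every replicate also reaching 80%; inconclusive means mean reaches 80% but some replicate falls short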;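 further: 0% = neutral control wells and 100% = parthenolide positive control wells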
# PglD DTNB: PglD (C. jejuni) enzyme inhibition; hit rate 0.098% among 360,000; inhibition, % at 12.5 µM; AID 602405; purified PglD enzyme, DTNB colorimetric CoA detection; in the data active means inhibition above about 16%, passing the limit was not always enough; inconclusive means no clear call, values can overlap the other calls
# UUG fidelity: yeast start codon fidelity modulation | S. cerevisiae UUG-firefly luciferase reporter, luminescence/redox ratio | activity score, % at 18.7 µM | 0.13% of 350,000 active | AID 602363;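 active means replicate mean at a twofold rise or more, about +100% in these data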;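 further: firefly luciferase made from a UUG start codon reports start codon fidelity; reporter light over untreated wells divided by growth signal over untreated wells; some hits fall short of that in this replicate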
# esBAF inh: blocks esBAF chromatin remodeling in mouse ES cells. Bmi1-luciferase knock-in reporter, 24 h; 100% = twice the neutral-well signal. reporter increase, % at 12.5 µM. hit rate 2% among 350,000. AID 602393; in the data active means activation above about 40%; inconclusive means no clear call, values can overlap the other calls;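 further: 0% = median of the plate's neutral control wells and 100% = double that signal; a rise in the Bmi1 reporter signal indicates esBAF inhibition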
# Wnt bcat act: activates Wnt/beta-catenin signaling in a reporter cell assay; hit rate 1.2% among 300,000; activator, plate reader; AID 743398; activation, % at 9.35 µM; in the data active means activation above about 30%, passing the limit was not always enough; inconclusive means no clear call, values can overlap the other calls;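 further: 0% = neutral control wells and 100% = positive control wells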
# miR122 inh: miR-122 inhibition in Huh7 cells; Huh7 miR-122 Renilla luciferase sensor, 48 h; neutral wells = 0, positive control = 100; activation (reporter increase), % at 12.5 µM; hit rate 0.3% among 340,000; AID 602342;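 active means mean replicate activation score at least 90 and every replicate individually at or above 90; inconclusive means only one of the two criteria met; inactive means neither criterion met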;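 further: higher luciferase means less miR-122 activity so hits act as miR-122 inhibitors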
# * hit, by the source's call; ? = inconclusive; nt = not tested or not shown; [ ] = remark or other dose. The list is not random: actives were taken first. Their share in the collection is about 2.8%.
no.	Molecule	MITF act	PglD DTNB	UUG fidelity
1	O=C(C[C@H]1CC[C@H]2[C@@H](COC[C@@H](O)CN2C(=O)Nc2cc(Cl)cc(Cl)c2)O1)NCC1CCCCC1	nt	3.6	nt
2	CO[C@H]1CN(C)C(=O)c2cc(NC(=O)Nc3ccc(C(F)(F)F)cc3)ccc2OC[C@@H](C)NC[C@H]1C	nt	0.2	nt
3	Cc1cc(C(=O)Nc2cccc3c2O[C@@H](CN(C)CC2CCCCC2)[C@@H](C)CN([C@H](C)CO)C3=O)n(C)n1	nt	1.7	-12.0
4	Cc1cc(C(=O)Nc2cccc3c2O[C@H](CN(C)CC2CCCCC2)[C@@H](C)CN([C@@H](C)CO)C3=O)n(C)n1	nt	3.1	-4.8
5	Cc1cc(C(=O)Nc2cccc3c2O[C@@H](CN(C)Cc2ccc(C(F)(F)F)cc2)[C@H](C)CN([C@H](C)CO)C3=O)n(C)n1	nt	0.7	-8.4
6	Cc1cc(C(=O)Nc2cccc3c2O[C@@H](CN(C)CC2CCCCC2)[C@H](C)CN([C@H](C)CO)C3=O)n(C)n1	nt	-0.1	3.3
7	Cc1cc(C(=O)Nc2cccc3c2O[C@H](CN(C)Cc2ccc(C(F)(F)F)cc2)[C@@H](C)CN([C@@H](C)CO)C3=O)n(C)n1	nt	2.9	3.0
8	Cc1cc(C(=O)Nc2cccc3c2O[C@@H](CN(C)CC2CCCCC2)[C@@H](C)CN([C@@H](C)CO)C3=O)n(C)n1	nt	6.6	3.0
9	CN(C)CC(=O)Nc1ccc2c(c1)[C@@H]1C[C@H](CC(=O)NCc3ccccc3F)O[C@@H](CO)[C@@H]1O2	nt	-6.3	-9.0
10	COc1cccc(S(=O)(=O)Nc2ccc3c(c2)[C@H]2C[C@@H](CC(=O)O)O[C@H](CO)[C@H]2O3)c1	nt	1.2	36.7*

no.	esBAF inh	Wnt bcat act	miR122 inh
1	5.0	nt	0.4[16.7 µM]
2	-1.7	nt	nt
3	-11.4	nt	96.5*[16.7 µM]
4	-5.5	nt	67.3[16.7 µM]
5	0.9	nt	127.0*[16.7 µM]
6	-3.6	nt	3.3[16.7 µM]
7	-6.1	nt	82.5[16.7 µM]
8	-2.9	nt	94.4*[16.7 µM]
9	0.3	nt	1.0[16.7 µM]
10	-1.0	nt	-4.3[16.7 µM]

# The list goes on:
no.	Molecule	MITF act	PglD DTNB	UUG fidelity
11	COc1cccc(S(=O)(=O)Nc2ccc3c(c2)[C@@H]2C[C@H](CC(=O)O)O[C@@H](CO)[C@@H]2O3)c1	nt	0.3	-7.1
12	CCCNC(=O)C[C@@H]1C[C@H]2c3cc(NC(=O)CC4CC4)ccc3O[C@H]2[C@H](CO)O1	nt	1.2	138.8*
13	C[C@@H]1CN([C@H](C)CO)C(=O)c2cc(NS(=O)(=O)c3ccc(Cl)cc3)ccc2O[C@@H](C)CCCCO[C@@H]1CN(C)C(=O)c1ccccc1	nt	5.0	6.0
14	Cc1ccc2nc(-c3ccc(NC(=O)C(C)N4C(=O)c5ccccc5C4=O)cc3)sc2c1 (stereo not drawn)	57.7	-7.9	-11.0
15	CCC(=O)NC(=S)Nc1ccc(-c2nc3ccccc3s2)cc1	54.7	nt	nt
16	Cc1ccc2nc(-c3ccc(NC(=S)NC(=O)C(C)C)cc3)sc2c1	96.4*	3.5	-12.3
17	CCC(=O)NC(=S)Nc1ccc(-c2nc3ccc(C)cc3s2)cc1	113.0*	0.7	-12.7
18	COc1ccc(NC(=O)Nc2ccc3c(c2)[C@@H]2C[C@H](CC(=O)N4CCCCC4)O[C@@H](CO)[C@@H]2O3)cc1	nt	3.8	-3.8
19	On1c(-c2ccccc2)nc2ccccc21	13.7	nt	nt
20	O=Nc1c2nc3ccccc3n(O)c-2c2ccccc12	nt	-5.2	-10.1

no.	esBAF inh	Wnt bcat act	miR122 inh
11	-1.9	nt	5.4[16.7 µM]
12	2.6	nt	7.2[16.7 µM]
13	-0.2	nt	14.8[16.7 µM]
14	nt	nt	-2.8
15	nt	nt	-1.1
16	38.6	23.5	-1.9
17	?	36.5*	-6.9
18	1.4	nt	-1.1[16.7 µM]
19	nt	7.9	nt
20	48.3*	39.8*	-11.8

# Further structures follow:
no.	Molecule	MITF act	PglD DTNB	UUG fidelity
21	N#C/C(=C\c1ccc(O)c(Br)c1)C(=O)NCc1ccccc1	3.8	nt	nt
22	N#C/C(=C\c1ccc(O)c([N+](=O)[O-])c1)C(=O)NCc1ccccc1	-9.9	-8.6	-14.7
23	CN(C)c1ccc(/C=C(/C#N)C(=O)NCc2ccccc2)o1	60.6	nt	nt
24	CCOc1ccc(CSC2=NCCN2)cc1Cl	nt	nt	nt
25	N#Cc1ccc(CSC2=NCCN2)cc1	-6.4	nt	nt
26	c1ccc2c(Nc3nc4c(s3)CCCC4)cccc2c1	nt	-1.2	-20.0
27	O=[N+]([O-])c1nn(-c2ccc(Cl)cc2)n(O)c1=NCc1ccccc1	10.8	-3.9	-12.0
28	O=[N+]([O-])c1nn(-c2ccccc2)n(O)c1=NCc1ccc2c(c1)OCO2	5.2	-8.1	-15.3
29	Cc1ccc(N=c2c([N+](=O)[O-])nn(-c3ccccc3)n2O)c(C)c1	20.8	0.5	-12.8
30	CC(=O)Oc1ccc([C@@H]2COc3c(ccc4c3C=CC(C)(C)O4)C2)c(OC(C)=O)c1	49.5	-1.8	-16.7

no.	esBAF inh	Wnt bcat act	miR122 inh
21	0.3	0.2	-8.0
22	-10.3	47.3*	-1.5
23	48.3*	12.8	-28.8
24	0.7	-2.4	277.3*
25	nt	0.0	nt
26	38.8	34.9*	8.5
27	22.7	39.6*	-2.0
28	2.2	-11.6	-4.3
29	67.0*	-2.9	-3.6
30	49.9*	30.0	-1.1

# Next compounds:
no.	Molecule	MITF act	PglD DTNB	UUG fidelity
31	O=C(/C=C/Nc1cccc(C(F)(F)F)c1)c1ccc(Oc2ncccn2)cc1	29.8	-1.9	-18.8
32	Cc1ccc(SCC(=O)NC(C)(C)C)cc1	nt	nt	nt
33	CN(C)C(=O)[C@@H]1[C@@H](CO)[C@@H]2Cn3c(ccc(-c4ccccc4)c3=O)[C@H]1N2C(=O)C1CC1	nt	1.4	10.4
34	CNC[C@@H]1OCCCC[C@@H](C)Oc2ccc(NS(=O)(=O)c3ccccc3)cc2C(=O)N([C@H](C)CO)C[C@H]1C	nt	-0.3	3.6
35	C[C@H](CO)N1C[C@H](C)[C@H](CN(C)Cc2ccc(Oc3ccccc3)cc2)Oc2ccc(NC(=O)C3CC3)cc2CC1=O	nt	2.5	10.2
36	CO[C@H](CN(C)CC1CCOCC1)[C@@H](C)CN(C(=O)Nc1ccc(F)cc1)[C@@H](C)CO	nt	2.4	nt
37	CC1CCc2c(sc3ncn(CCO)c(=O)c23)C1 (stereo not drawn)	73.9	-3.2	-19.5
38	CC1CCc2c(sc3ncn(Cc4ccc(C(=O)O)cc4)c(=O)c23)C1 (stereo not drawn)	12.4	-4.3	-13.1
39	CC(=O)Nc1c(C(=O)Nc2ccc3c(c2)OCO3)oc2ccccc12	79.0	-5.0	-19.3
40	Cc1c(C(=O)NNC(=O)c2ccccc2O)oc2ccccc12	nt	8.3	-16.6

no.	esBAF inh	Wnt bcat act	miR122 inh
31	49.4*	nt	-3.6
32	55.8*	33.2*	-5.5
33	-3.7	nt	40.2[16.7 µM]
34	4.6	nt	2.2[16.7 µM]
35	-5.4	nt	-1.6[16.7 µM]
36	-3.3	nt	nt
37	53.0*	10.6	-3.3
38	12.3	-1.7	-1.5
39	?	?	nt
40	59.0*	0.7	41.2

# Rewritten with values under each structure: part of the list above
# Values run as follows: MITF act	PglD DTNB	UUG fidelity	esBAF inh	Wnt bcat act	miR122 inh
15	CCC(=O)NC(=S)Nc1ccc(-c2nc3ccccc3s2)cc1
 : 54.7	nt	nt	nt	nt	-1.1
16	Cc1ccc2nc(-c3ccc(NC(=S)NC(=O)C(C)C)cc3)sc2c1
 : 96.4*	3.5	-12.3	38.6	23.5	-1.9
17	CCC(=O)NC(=S)Nc1ccc(-c2nc3ccc(C)cc3s2)cc1
 : 113.0*	0.7	-12.7	?	36.5*	-6.9
18	COc1ccc(NC(=O)Nc2ccc3c(c2)[C@@H]2C[C@H](CC(=O)N4CCCCC4)O[C@@H](CO)[C@@H]2O3)cc1
 : nt	3.8	-3.8	1.4	nt	-1.1[16.7 µM]

# Following part:
no.	Molecule	MITF act	PglD DTNB	UUG fidelity
41	COCC(=O)Nc1c(C(=O)Nc2ccc3c(c2)OCO3)oc2ccccc12	58.9	-1.8	-8.3
42	COC(=O)c1oc2ccccc2c1NC(=O)c1ccccc1O	-18.1	1.0	-12.6
43	Cc1c(C(=O)Nc2ccc3c(c2)OCO3)oc2ccccc12	42.2	0.8	-16.0
44	C[C@H]1CN([C@@H](C)CO)C(=O)Cc2cc(NC(=O)Nc3ccccc3)ccc2O[C@H]1CN(C)C(=O)Nc1cccc2ccccc12	nt	0.7	3.4
45	CN(C)CCNC(=O)c1cccc2c(-c3ccc(F)c(F)c3)coc12	nt	-6.5	-7.4
46	COc1ccc(NC(=O)c2cccc3c(-c4cccnc4)coc23)cc1	nt	1.8	-15.4
47	CN(C)c1cccc(NC(=O)c2cccc3c(-c4ccc(F)c(F)c4)coc23)c1	nt	-10.3	6.5

no.	esBAF inh	Wnt bcat act	miR122 inh
41	63.0*	27.1	nt
42	-5.0	0.1	-3.0
43	50.1*	26.6	-2.8
44	3.9	nt	-3.2[16.7 µM]
45	-0.8	-1.5	3.9
46	5.5	-3.4	15.0
47	41.4*	1.9	6.3
